# Read-outs that look alike come from different tables or passages of the source.
# Amino acid sequences for entries named in this document (tags omitted). Chains listed by the source or under a name are the forms on record and can include a tag or linker.
# UniProt Q12809, with tags, fused parts or gaps DEL141-380/DEL871-1005: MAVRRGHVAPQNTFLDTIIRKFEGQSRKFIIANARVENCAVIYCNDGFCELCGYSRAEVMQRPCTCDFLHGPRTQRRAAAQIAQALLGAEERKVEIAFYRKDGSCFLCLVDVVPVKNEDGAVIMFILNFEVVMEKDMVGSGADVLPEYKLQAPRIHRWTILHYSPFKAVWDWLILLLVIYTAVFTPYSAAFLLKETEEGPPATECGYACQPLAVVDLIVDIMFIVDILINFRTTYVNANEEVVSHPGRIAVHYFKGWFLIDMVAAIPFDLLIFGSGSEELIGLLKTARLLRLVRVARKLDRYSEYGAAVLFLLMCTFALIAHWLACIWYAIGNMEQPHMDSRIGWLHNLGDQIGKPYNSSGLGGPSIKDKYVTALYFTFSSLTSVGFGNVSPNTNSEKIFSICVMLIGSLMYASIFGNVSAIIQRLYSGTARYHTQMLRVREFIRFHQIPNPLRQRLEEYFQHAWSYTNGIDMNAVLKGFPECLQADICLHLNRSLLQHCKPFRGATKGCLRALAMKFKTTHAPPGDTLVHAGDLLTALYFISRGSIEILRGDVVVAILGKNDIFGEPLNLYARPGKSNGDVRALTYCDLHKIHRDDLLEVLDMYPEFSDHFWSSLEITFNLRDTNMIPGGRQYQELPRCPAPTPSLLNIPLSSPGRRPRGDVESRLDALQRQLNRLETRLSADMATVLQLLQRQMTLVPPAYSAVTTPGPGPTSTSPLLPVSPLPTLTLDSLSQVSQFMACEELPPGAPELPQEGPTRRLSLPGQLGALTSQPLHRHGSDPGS
# Tests used:
# hERG = hERG (Homo sapiens, UniProt Q12809); conditions: cited from earlier work
# hERG channel = hERG channel (Homo sapiens, UniProt Q12809, DEL141-380/DEL871-1005); assay: biochemical
SMILES,"IC50 (hERG; read-out: IC50 patch, electrophysiology-determined values reported in the literature) [nM]",IC50 (hERG channel) [nM],IC50 (hERG) [nM]
Fc1ccc(C(OCCN2CCN(CCCc3ccccc3)CC2)c2ccc(F)cc2)cc1 [GBR-12909],7,233 ± 22,
O=C1Cc2cc(CCN3CCN(c4nsc5ccccc45)CC3)c(Cl)cc2N1 [Ziprasidone],,4060 ± 475,120 to 240

# Source: patent publication US11579152B2, “Engineered hERG channel proteins, vesicles and methods of identifying small molecule pharmacological agents” (priority 2016, dated 2023)
